# Values of other authors in PMC5072831, “Novel Nuclear Factor-KappaB Targeting Peptide Suppresses β-Amyloid Induced Inflammatory and Apoptotic Responses in Neuronal Cells” (PLoS ONE, 2016).
# Protein sequences, listed by entry. Tags and fused reporters are not part of them.
# UniProt Q04206, whole entry: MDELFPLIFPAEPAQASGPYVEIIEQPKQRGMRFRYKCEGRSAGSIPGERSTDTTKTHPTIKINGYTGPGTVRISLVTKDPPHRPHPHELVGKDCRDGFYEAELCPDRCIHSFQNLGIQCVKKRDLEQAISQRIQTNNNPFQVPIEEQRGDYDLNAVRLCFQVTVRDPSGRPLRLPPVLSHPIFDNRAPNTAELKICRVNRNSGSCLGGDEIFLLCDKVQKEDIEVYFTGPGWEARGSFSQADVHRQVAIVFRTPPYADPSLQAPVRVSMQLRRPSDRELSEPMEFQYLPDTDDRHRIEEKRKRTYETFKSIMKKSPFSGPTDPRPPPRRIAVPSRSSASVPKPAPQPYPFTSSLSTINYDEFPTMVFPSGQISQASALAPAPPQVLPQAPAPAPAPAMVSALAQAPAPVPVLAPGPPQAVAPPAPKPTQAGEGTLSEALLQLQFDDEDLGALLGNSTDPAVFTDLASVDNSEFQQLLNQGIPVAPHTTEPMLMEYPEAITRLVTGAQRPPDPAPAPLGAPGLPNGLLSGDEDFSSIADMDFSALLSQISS
# Target: T1, r-p65 (Homo sapiens, UniProt Q04206)
# T1 construct: purchased Ori-Gene Technologies Inc., Rockville, MD TP320780
# Conditions: previously shown; ref [27]; read-out: strength of interaction with r-p65 (KD); cited from earlier work
# Description: We used similar method to determine direct binding kinetics of GA hexapeptides with human r-p65. High binding ELISA plates were coated with increasing concentrations of r-GILZ (0.5μM to 20μM) or each GA or control peptide (20μM-640μM) and probed with 80μM r-p65 followed by detection with anti-DDK antibody. Absorbance at 650nm was measured with a mixing time of 30s using BIORAD microplate reader. […] The strength of interact ...
molecule,measurement,value
"r-GILZ: purified recombinant human GILZ protein with GST tag (Ori-Gene) (protein, left off: GST, end not stated, state not stated) MNTEMYQTPMEVAVYQLHNFSISFFSSLLGGDVVSVKLDNSASGASVVAIDNKIEQAMDLVKNHLMYAVREEVEILKEQIRELVEKNSQLERENTLLKTLASPEQLEKFQSCLSPEEPAPESPQVPEAPGGSAV",Kd,591 nM
